Literature values in US20080306035A1, “Methods and Compositions for Treating Female Infertility Using Clomiphene” (priority 2005, published 2008).

Details: following a single dose

For cis-clomiphene, the “duration of residual blood levels” value is given as “one”.
